Measured values from US7348328B2, “MCH antagonists for the treatment of obesity” (Schering Corporation, priority 2001, dated 2008).
pKi: −log10 of the molar value.

By UniProt entry, the sequences of proteins in these tests, tags left out. Where a name states a change or a piece, a line headed by the entry shows the natural chain unless it says otherwise.
UniProt Q99705: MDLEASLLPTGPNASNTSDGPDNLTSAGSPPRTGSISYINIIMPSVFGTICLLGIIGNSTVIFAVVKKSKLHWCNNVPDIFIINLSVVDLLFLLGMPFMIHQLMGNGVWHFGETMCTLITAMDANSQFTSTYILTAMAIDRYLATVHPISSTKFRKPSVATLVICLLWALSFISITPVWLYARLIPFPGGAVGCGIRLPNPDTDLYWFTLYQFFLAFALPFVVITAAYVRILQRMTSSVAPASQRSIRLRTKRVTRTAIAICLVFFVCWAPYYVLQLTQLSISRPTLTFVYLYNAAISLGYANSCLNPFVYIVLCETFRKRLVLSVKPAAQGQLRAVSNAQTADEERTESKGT

Target: T1, MCH receptor (Homo sapiens, UniProt Q99705)
T1 construct: expressed in transfected cells; host or cells: CHO cells (membranes)
Test: MCH Receptor Binding Assay
Details: Table 1b, preferred compounds; read-out: MCH R1 Ki
Procedure: MCH Receptor Binding Assay:
Membranes from CHO cells expressing the MCH receptor were prepared by lysing cells with 5 mM HEPES for 15 min at 4C. Cell lysates were centrifuged ([…], 15 min) and the pellet was resuspended in 5 mM HEPES. For each 96-well plate (Microlite, Dynex Technologies), 1 mg of cell membranes were incubated with 10 mg of wheat germ agglutinin SPA beads (Amersham) for 5 min at 4 C. in a volume of 10 ml of binding buffer (25 mM HEPES, 10 mM MGCl2, 10 mM NaCl, 5 mM MnCl2, 0.1% BSA). The membrane/bead mixture was centrifuged (1500×g, 3.5 min), the supernatant was aspirated, and the pellet was resuspended in 10 ml binding buffer. The centrifugation, aspiration and resuspension were then repeated. […] Nonspecific binding was determined by including 1 μM MCH in the binding reaction. The binding reaction was incubated at room temperature for 2 h. Plates were then analyzed in a TOPCOUNT microplate scintillation counter (Packard). Data was analyzed and Ki values were determined using GraphPad Prim.

SMILES	pKi
N#Cc1cccc([C@@]23CC[C@@H](N(CCN4CCC[C@@H]4CO)C(=O)Nc4ccc(F)c(Cl)c4)CC2C3)c1 (stereo partly drawn)	8.15
COC(=O)c1cccc([C@@]23CC[C@@H](N(CCN(C(C)C)C(C)C)C(=O)Nc4ccc(F)c(F)c4)CC2C3)c1 (stereo partly drawn)	7.47
N#Cc1cccc([C@]23CC[C@H](N(CC4CCN(C5CCOCC5)CC4)C(=O)Nc4ccc(F)c(Cl)c4)CC2C3)c1 (stereo partly drawn)	8.06
